This note sets out measurements from patent US9346795B2, “Substituted sulfonamides useful as antiapoptotic Bcl inhibitors” (Bristol-Myers Squibb Company, priority 2011, dated 2016).

The chains behind the UniProt entries cited, without tags or fusion partners.
UniProt Q07817, whole entry: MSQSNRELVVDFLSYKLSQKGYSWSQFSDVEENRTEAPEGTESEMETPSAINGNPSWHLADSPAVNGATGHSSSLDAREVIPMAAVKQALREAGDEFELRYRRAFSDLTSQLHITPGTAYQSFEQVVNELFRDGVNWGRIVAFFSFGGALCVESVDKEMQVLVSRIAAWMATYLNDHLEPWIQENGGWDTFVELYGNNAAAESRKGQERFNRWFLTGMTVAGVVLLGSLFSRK
UniProt P10415, whole entry: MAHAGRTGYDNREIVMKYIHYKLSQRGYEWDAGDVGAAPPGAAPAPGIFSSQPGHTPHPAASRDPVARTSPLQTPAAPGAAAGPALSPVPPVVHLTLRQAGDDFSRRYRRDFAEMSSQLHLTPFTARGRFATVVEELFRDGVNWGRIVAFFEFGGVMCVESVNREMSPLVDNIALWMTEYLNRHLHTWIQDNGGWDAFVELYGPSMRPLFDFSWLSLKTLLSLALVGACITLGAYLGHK

One experiment addresses Bcl-xL (Homo sapiens (Human), UniProt Q07817). Kind of experiment: Bcl-xL/Bim Fluorescence Resonance Energy Transfer Assay (FRET). In kind it is binding. The method, then:
Bcl-xL/Bim Fluorescence Resonance Energy Transfer Assay (FRET) The assays were performed in black flat-bottom 384-well plates. The final assay volume was 55 μl prepared from additions of Biotin-Bcl-xL (Bcl-xL: GENBANK® Accession No. […] The reaction was incubated at room temperature for 60 minutes. After 60 minutes, 5 μL of Streptavidin-Terbium FRET detection reagent (Perkin Elmer) was added to the reaction mixture and incubated at room temperature in the dark for 30 mins. […] Compounds were dissolved at 10 mM in dimethylsulfoxide (DMSO) and evaluated at eleven concentrations. IC50 values were derived by non-linear regression analysis.

In the next experiment the target is Bcl-2 (Homo sapiens (Human), UniProt P10415). Kind of experiment: Bcl-2/Bim Fluorescence Polarization Assay (FPA). In kind it is binding. As to the method: Bcl-2/Bim Fluorescence Polarization Assay (FPA)
The assays were performed in black flat-bottom 384-well plates. […] The reaction was incubated at room temperature for 60 minutes and fluorescence polarization of the reaction was detected on the LJL Plate Reader. Inhibition data were calculated from mP values generated by the no protein control reactions for 100% inhibition and vehicle-only reactions for 0% inhibition. The final concentrations of reagents in the assay were 4.9 nM BCL-2, 5 nM fluoresceinated 18-mer BIM peptide and 1% DMSO. Dose response curves were generated to determine the concentration required inhibiting 50% of kinase activity (IC50). Compounds were dissolved at 10 mM in dimethylsulfoxide (DMSO) and evaluated at eleven concentrations. IC50 values were derived by non-linear regression analysis.
(Fluorescence polarisation rises when a labelled molecule tumbles more slowly, as on binding a larger partner.)

As to `CCCCc1c(-c2ccc(C(=O)NS(=O)(=O)c3ccc4ccccc4c3)cc2C(=O)N2CCc3ccccc3C2)c(CO)nn1-c1ccc(OCC(O)CO)cc1` (racemic) [Example 258, (±)-4-(5-Butyl-1-(4-(2,3-dihydroxypropoxy)phenyl)-3-(hydroxymethyl)-1H-pyrazol-4-yl)-N-(naphthalen-2-ylsulfonyl)-3-(1,2,3,4-tetrahydroisoquinoline-2-carbonyl)benzamide], at Bcl-xL, inhibition was half-maximal at 4.96 nM (IC50). This counts as single-digit nanomolar.
Take `CCCCN(CCCC)C(=O)c1nn(-c2ccc(C(=O)NS(=O)(=O)c3ccc4ccccc4c3)cc2C(=O)N2Cc3ccccc3C[C@H]2CO)c(C)c1Cl` [Example 91, N,N-Dibutyl-4-chloro-1-(2-((S)-3-(hydroxymethyl)-1,2,3,4-tetrahydroisoquinoline-2-carbonyl)-4-(naphthalen-2-ylsulfonylcarbamoyl)phenyl)-5-methyl-1H-pyrazole-3-carboxamide]: it took 6.27 nM to reach half-maximal inhibition against Bcl-xL (IC50).
As for `CCCCN(CCCC)C(=O)c1nn(-c2ccc(C(=O)NS(=O)(=O)c3ccc4cccc(I)c4c3)cc2C(=O)N2CCc3ccccc3C2)c(C)c1Cl` [Example 7, N,N-dibutyl-4-chloro-1-(4-(8-iodonaphthalen-2-ylsulfonylcarbamoyl)-2-(1,2,3,4-tetrahydroisoquinoline-2-carbonyl)phenyl)-5-methyl-1H-pyrazole-3-carboxamide], the IC50 against Bcl-xL and against Bcl-2 was 40 nM in each case.
For the compound `CCCCN(CCCC)C(=O)c1nn(-c2ccc(C(=O)NS(=O)(=O)c3ccc4ccccc4c3)cc2C(=O)N2Cc3ccccc3C[C@H]2CNC2CCN(C)CC2)c(C)c1Cl` [Example 106, N,N-Dibutyl-4-chloro-5-methyl-1-(2-((S)-3-((1-methylpiperidin-4-ylamino)methyl)-1,2,3,4-tetrahydroisoquinoline-2-carbonyl)-4-(naphthalen-2-ylsulfonylcarbamoyl)phenyl)-1H-pyrazole-3-carboxamide], the IC50 – broadly, the concentration needed to halve the response being measured – against Bcl-xL came to 7.06 nM.
